Binding of CDR-mutated scFvs to a peptide of the spike HR2 region

Data: MIT Lincoln Laboratory AlphaSeq set, Li et al. 2023, doi:10.1038/s41467-023-39022-2, as distributed in FLAb.

All variants were tested on one target, the spike HR2 peptide PDVDLGDISGINAS (SARS-CoV-2).

Ab-14 is the parent antibody, in scFv form: VH, then a (GGGGS)3 linker, then VL. The heavy chain is unchanged in all variants.
VH: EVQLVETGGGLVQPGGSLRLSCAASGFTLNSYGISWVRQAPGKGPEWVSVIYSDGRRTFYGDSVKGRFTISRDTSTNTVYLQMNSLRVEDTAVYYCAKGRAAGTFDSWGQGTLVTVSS
VL: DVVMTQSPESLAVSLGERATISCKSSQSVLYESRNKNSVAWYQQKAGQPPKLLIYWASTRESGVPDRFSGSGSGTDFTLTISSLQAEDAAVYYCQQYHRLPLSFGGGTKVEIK

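Phage display of a naive human antibody library on the peptide gave the parent. The variants were designed computationally from a first round of random CDR variants and then made and measured. Their group label is 14L_Ctrl (Ctrl: baseline library sampled from a position-specific scoring matrix, with some repeated check sequences). In AlphaSeq, yeast of one mating type display the scFv and yeast of the other type display the target. After mating in shaken culture at 30 °C for 16 h, diploids were selected and their barcode pairs sequenced. The ratio of observed to expected reads was calibrated, replicate by replicate, on BCL2-family standards whose Kd was known from biolayer interferometry. Each pool was mated in six replicate cultures.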

Variants are written as CDR1, CDR2 and CDR3 of the light chain (limits as in the source). Parent: KSSQSVLYESRNKNSVA, WASTRES, QQYHRLPLS.
Numbers give log10(Kd / nM), so 0 is 1 nM and 3 is 1 µM. Smaller is tighter.
"n.d." means that the variant was in the library but no mating with the target was seen in that replicate; the authors take this as a sign of poor binding, and no number exists.

CDR-L1,CDR-L2,CDR-L3,"log10 Kd, replicates",empty controls
KSSYSVLYESRNKNSVA,WADIRSS,QQYIRLPLL,1.77 / 1.10 / 2.87 / 0.86 / 1.41 / 1.33,0 of 18
KSSQSVLYESRNANMVA,WASTRES,QQYHRFPLS,n.d. / n.d. / n.d. / n.d. / n.d. / n.d.,0 of 18
KSSESVLYESRNKNSVA,WASTRES,QQYHRLMLS,n.d. / n.d. / n.d. / n.d. / n.d. / n.d.,0 of 18
KCSQSVLYESRLKNSVA,NASTRES,QVYHRLPCS,n.d. / n.d. / n.d. / n.d. / n.d. / n.d.,2 of 18 (2.41)
KSSQSVLEESRNKNSHA,WASTRES,QQYHRLPLS,n.d. / n.d. / n.d. / n.d. / n.d. / n.d.,0 of 18
KMSQSKLYESFNKNNVA,WASTRES,QQYHRLPLS,n.d. / n.d. / n.d. / n.d. / n.d. / n.d.,0 of 18
KSSQSVAEESRNKNSVA,EASTRES,QQYHRLPLS,0.31 / 0.08 / 0.04 / -0.06 / -0.04 / 0.26; 0.60 / 0.37 / 0.31 / 0.14 / 0.11 / 0.46; 0.69 / 0.43 / 0.27 / 0.27 / 0.27 / 0.80; 0.61 / 0.43 / 0.17 / 0.37 / 0.39 / 0.62; 0.20 / 0.10 / -0.11 / 0.06 / 0.03 / 0.05,5 of 90 (2.69)
KSSQSVLYESRNKNSVA,WAVTRES,QQYQRLPLS,n.d. / n.d. / n.d. / n.d. / n.d. / n.d.,0 of 18
KSSQSVLYESLNKNSVA,HASTRND,QQYHRLPLS,0.75 / 0.37 / 0.45 / 0.44 / 0.37 / 0.65,0 of 18
KWSQSVLYESGNKNSVA,WASTRES,QQYHRLPLS,1.80 / 1.06 / 1.63 / 1.17 / 1.52 / 1.70,0 of 18
KSSQSVLYEWRNKNSVA,QASTREV,QQYHRLPLS,n.d. / 2.30 / n.d. / n.d. / 2.33 / 3.52,0 of 18
KSSQSVLYSSYNKNSVA,FASTRED,QQYHRLPLS,n.d. / 2.05 / n.d. / n.d. / n.d. / n.d.,0 of 18
MSSQSQLYESENKNSVA,WASIRFS,QQYHRLPLS,n.d. / n.d. / n.d. / n.d. / n.d. / 1.58,1 of 18 (1.56)
KVSGSVLYESRNFNSIA,HASTRES,QQYHRLPLS,0.03 / 0.20 / 0.03 / 0.10 / 0.04 / 0.22,1 of 18 (1.59)
KISLSVLSESRNKNSVA,WASTRES,QQSHRLPLS,3.00 / 1.34 / 1.73 / 1.36 / 1.69 / 1.62,1 of 18 (3.40)
KSSQSVLWESRNMNSVA,WASTRES,QQYHRLPLS,1.97 / 3.03 / n.d. / 2.05 / 2.61 / n.d.,1 of 18 (2.96)
KSSQSALYESRNKNSVA,WASTREG,QQYHELPLS,n.d. / n.d. / n.d. / n.d. / n.d. / 1.82,0 of 18
KSSQSVYYESRNKNSVA,WAVRRES,QQYHHLPLS,n.d. / n.d. / n.d. / n.d. / n.d. / n.d.,0 of 18
KSPQSNTKESYNKNSVA,WASTRED,QQYHRLPLS,1.32 / 1.19 / 1.25 / 0.98 / 1.72 / 1.48,0 of 18
KSSESVLYEGYNKNSVA,WASTRES,QQYHGLPLS,2.10 / 3.10 / 2.22 / 2.18 / 2.36 / 2.94,2 of 18 (2.90)
KVSQSVLFESRNDNSIA,WASTRES,QAYHRLPLS,n.d. / 1.65 / 1.72 / 1.87 / 1.49 / 1.30,1 of 18 (2.26)
KSSQNVLYESRNKNSVN,WASTREA,QQYHRLPLS,n.d. / n.d. / n.d. / n.d. / n.d. / n.d.,0 of 18
KSQQSCLYESRNKNSVA,WASTRER,QQYHRLPLS,n.d. / n.d. / n.d. / n.d. / n.d. / n.d.,0 of 18
KSSQTVLYESRNKNSVA,DASTRES,QQYHRLPPS,-0.39 / -0.08 / -0.77 / -0.51 / 0.09 / -0.37,0 of 18
HSSQSVLYESRNKNSVA,SASTRES,QQYHRLPLS,n.d. / n.d. / 0.59 / 2.03 / 1.47 / 2.16,0 of 18
KISQLVLYESQNKNSVA,AASTREE,QQYHRLPLS,0.24 / 0.01 / -0.31 / -0.07 / -0.27 / 0.22,1 of 18 (2.64)
NSSQSVLYESRNKNSVA,WASTRES,QQYHRLPLS,n.d. / n.d. / 1.86 / 2.04 / 2.76 / n.d.,0 of 18
KTSQSVLYESRNKNSVA,WASTRSS,QSYTRLPLS,n.d. / 2.71 / 1.81 / 1.64 / 1.87 / 1.84,1 of 18 (1.43)
KSSQSVLTESRNKNSVA,WASTRED,QQYHRYPLS,n.d. / n.d. / n.d. / 1.10 / 2.18 / 2.75,1 of 18 (1.86)
KSSQSVLYTSRNKNSVA,WASVRES,QQYHRLPLS,n.d. / 2.45 / n.d. / n.d. / n.d. / 1.99,1 of 18 (2.62)
KVSQSVLYESRNKNSVA,YASTRCS,QCYHRLPLS,n.d. / 3.90 / 1.35 / 2.50 / 2.13 / 2.77,1 of 18 (2.89)
KVSQSSDYESRNKNSVA,WASHRES,QQYHRLPLS,1.41 / 1.02 / 1.47 / 0.75 / 1.57 / 1.04,1 of 18 (2.76)
KWSQSVLYESKNKNSVA,WASTRES,QQYHRLPLS,n.d. / 2.35 / 2.55 / 1.87 / 2.91 / 3.58,0 of 18
KISQSVLYESRNKNSVA,FASTRES,QQYHRLPLS,0.64 / 0.27 / 0.31 / 0.26 / 0.28 / 0.51,3 of 18 (3.07)
KSSQSMLTQSRNKNSVA,WASTRES,QQYGRLMLS,n.d. / n.d. / n.d. / n.d. / n.d. / n.d.,0 of 18

Excerpt, the final 6 entries:

CDR-L1	CDR-L2	CDR-L3	log10 Kd, replicates	empty controls
KSSQSVLYTSRNKNSVA	WASVRES	QQYHRLPLS	n.d. / 2.45 / n.d. / n.d. / n.d. / 1.99	1 of 18 (2.62)
KVSQSVLYESRNKNSVA	YASTRCS	QCYHRLPLS	n.d. / 3.90 / 1.35 / 2.50 / 2.13 / 2.77	1 of 18 (2.89)
KVSQSSDYESRNKNSVA	WASHRES	QQYHRLPLS	1.41 / 1.02 / 1.47 / 0.75 / 1.57 / 1.04	1 of 18 (2.76)
KWSQSVLYESKNKNSVA	WASTRES	QQYHRLPLS	n.d. / 2.35 / 2.55 / 1.87 / 2.91 / 3.58	0 of 18
KISQSVLYESRNKNSVA	FASTRES	QQYHRLPLS	0.64 / 0.27 / 0.31 / 0.26 / 0.28 / 0.51	3 of 18 (3.07)
KSSQSMLTQSRNKNSVA	WASTRES	QQYGRLMLS	n.d. / n.d. / n.d. / n.d. / n.d. / n.d.	0 of 18

Background: pairings of all light chain designs with three empty control strains gave a value in 4% of cases (median 2.64, 5th percentile 1.59). Values in that range, when seen in few replicates, are hard to tell from nonspecific mating. The control count says in how many pairings with the empty strains this scFv gave a signal, with their mean in brackets.
Values of this round are not directly comparable with the first-round values of the same sequences.
The authors averaged sequences with at least three values out of six and counted those with two or fewer as poor binders.
A sequence that the file lists under several names has all its replicates listed entry by entry, parted by semicolons.